Data: the kinase profiling compilation of Christmann-Franck et al. (2016)

The chains behind the UniProt entries cited, without tags or fusion partners. Where a name states a change or a piece, a line headed by the entry shows the natural chain unless it says otherwise.
UniProt Q04771: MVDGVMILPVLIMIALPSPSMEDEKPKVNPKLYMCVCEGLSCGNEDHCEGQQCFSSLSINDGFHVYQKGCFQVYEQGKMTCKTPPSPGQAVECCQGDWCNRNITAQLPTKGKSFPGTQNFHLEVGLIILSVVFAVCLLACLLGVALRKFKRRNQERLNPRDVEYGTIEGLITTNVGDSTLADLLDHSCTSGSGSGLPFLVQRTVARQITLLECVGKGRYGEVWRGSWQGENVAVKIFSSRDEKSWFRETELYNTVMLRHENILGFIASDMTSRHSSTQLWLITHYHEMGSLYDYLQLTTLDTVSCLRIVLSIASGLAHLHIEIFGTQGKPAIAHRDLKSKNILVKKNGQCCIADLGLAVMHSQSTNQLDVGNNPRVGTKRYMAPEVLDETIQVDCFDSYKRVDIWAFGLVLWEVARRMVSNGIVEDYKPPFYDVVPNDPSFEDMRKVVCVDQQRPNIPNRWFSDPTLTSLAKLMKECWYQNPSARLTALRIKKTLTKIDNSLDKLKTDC
UniProt Q6XUX3: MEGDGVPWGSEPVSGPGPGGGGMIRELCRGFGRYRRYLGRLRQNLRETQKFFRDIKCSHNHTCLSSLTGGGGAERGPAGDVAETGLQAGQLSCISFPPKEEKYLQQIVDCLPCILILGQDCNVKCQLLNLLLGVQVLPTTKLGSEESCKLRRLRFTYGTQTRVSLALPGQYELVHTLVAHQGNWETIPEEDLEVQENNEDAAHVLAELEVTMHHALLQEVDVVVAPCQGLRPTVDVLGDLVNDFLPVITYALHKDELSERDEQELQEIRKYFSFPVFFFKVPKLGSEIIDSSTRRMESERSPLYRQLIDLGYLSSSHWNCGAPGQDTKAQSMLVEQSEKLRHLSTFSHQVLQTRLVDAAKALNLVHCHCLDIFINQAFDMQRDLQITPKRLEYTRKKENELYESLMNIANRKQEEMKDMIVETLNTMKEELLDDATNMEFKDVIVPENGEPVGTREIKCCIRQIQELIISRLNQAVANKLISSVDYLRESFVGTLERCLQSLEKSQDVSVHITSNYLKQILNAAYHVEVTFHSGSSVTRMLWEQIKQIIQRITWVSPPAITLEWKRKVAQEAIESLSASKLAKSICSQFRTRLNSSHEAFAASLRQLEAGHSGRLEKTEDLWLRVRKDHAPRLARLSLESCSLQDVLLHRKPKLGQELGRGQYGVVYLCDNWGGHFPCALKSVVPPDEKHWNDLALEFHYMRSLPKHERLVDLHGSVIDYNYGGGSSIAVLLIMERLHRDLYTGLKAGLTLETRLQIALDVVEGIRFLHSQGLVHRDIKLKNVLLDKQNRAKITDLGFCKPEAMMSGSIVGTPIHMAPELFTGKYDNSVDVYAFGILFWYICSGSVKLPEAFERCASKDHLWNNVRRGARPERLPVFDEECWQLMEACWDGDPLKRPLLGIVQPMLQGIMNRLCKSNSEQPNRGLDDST
UniProt P29323: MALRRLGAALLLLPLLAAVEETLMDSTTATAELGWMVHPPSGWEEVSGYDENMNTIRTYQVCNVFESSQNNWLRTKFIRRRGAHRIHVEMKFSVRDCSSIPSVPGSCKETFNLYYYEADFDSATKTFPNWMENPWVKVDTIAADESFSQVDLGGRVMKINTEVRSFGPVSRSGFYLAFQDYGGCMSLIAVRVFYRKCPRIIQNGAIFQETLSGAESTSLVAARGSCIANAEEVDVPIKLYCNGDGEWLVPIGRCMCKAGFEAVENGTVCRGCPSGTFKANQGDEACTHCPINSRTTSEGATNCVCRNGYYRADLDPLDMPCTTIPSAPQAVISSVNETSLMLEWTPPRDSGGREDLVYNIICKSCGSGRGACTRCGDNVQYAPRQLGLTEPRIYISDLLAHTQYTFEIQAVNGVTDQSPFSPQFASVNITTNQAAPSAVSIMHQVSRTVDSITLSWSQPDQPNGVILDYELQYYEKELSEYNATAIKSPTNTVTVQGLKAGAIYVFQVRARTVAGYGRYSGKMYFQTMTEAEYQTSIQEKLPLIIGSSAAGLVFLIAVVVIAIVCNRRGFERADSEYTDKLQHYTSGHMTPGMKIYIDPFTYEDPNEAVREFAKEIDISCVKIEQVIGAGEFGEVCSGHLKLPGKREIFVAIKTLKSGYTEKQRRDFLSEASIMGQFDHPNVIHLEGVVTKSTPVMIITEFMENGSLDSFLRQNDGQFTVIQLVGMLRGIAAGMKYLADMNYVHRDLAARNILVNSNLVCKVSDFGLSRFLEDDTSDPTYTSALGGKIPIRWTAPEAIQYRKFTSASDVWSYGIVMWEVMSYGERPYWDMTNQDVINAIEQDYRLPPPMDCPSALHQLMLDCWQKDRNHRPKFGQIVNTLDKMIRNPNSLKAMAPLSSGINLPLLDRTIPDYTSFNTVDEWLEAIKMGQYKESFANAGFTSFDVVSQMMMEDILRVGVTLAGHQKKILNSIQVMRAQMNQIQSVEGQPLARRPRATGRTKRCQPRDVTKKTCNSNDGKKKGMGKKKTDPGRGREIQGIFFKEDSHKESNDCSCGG
UniProt P23458: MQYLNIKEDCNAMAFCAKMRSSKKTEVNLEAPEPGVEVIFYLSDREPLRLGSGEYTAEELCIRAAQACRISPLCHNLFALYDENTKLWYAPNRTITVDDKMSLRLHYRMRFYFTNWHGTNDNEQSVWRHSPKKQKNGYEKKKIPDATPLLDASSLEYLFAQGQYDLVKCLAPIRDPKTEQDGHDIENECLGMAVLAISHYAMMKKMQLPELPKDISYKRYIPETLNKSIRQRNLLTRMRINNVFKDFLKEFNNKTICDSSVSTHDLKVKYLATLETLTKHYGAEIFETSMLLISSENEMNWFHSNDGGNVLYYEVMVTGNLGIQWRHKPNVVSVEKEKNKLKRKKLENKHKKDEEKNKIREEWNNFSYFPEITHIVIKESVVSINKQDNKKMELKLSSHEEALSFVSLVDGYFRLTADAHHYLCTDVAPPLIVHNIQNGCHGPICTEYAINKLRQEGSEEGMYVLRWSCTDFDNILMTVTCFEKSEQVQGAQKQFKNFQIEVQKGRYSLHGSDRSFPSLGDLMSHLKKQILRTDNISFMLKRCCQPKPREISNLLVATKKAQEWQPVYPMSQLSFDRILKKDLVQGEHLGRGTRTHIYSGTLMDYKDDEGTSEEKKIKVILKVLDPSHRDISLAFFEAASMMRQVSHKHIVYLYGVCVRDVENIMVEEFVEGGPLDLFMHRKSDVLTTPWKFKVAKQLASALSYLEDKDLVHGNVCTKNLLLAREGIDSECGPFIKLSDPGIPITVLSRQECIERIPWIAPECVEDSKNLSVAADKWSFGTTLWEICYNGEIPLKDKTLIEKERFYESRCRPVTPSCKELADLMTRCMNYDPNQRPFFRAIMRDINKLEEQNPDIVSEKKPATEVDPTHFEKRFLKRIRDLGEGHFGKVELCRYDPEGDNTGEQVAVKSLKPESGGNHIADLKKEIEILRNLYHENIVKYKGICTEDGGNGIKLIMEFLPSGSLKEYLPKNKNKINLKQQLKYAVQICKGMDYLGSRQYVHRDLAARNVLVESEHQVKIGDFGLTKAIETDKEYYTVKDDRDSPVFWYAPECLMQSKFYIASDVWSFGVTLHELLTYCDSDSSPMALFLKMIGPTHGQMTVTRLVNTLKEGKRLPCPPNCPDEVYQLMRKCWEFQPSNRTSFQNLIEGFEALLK
UniProt O75914, whole entry, looked up: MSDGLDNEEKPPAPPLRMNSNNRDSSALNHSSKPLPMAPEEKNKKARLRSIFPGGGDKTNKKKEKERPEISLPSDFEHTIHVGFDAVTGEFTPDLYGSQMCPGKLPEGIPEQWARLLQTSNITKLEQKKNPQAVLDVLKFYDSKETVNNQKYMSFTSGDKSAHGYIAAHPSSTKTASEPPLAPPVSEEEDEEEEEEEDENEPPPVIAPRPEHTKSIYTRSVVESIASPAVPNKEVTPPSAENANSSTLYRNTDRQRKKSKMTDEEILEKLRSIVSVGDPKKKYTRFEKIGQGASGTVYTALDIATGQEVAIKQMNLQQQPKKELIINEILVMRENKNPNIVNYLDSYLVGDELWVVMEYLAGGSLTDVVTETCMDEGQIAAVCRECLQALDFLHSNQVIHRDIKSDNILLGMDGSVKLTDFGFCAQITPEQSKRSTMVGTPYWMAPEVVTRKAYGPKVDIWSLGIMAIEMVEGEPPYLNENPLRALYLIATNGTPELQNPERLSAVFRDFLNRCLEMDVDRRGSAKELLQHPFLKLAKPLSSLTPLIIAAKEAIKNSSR
UniProt Q9UK32, whole entry, looked up: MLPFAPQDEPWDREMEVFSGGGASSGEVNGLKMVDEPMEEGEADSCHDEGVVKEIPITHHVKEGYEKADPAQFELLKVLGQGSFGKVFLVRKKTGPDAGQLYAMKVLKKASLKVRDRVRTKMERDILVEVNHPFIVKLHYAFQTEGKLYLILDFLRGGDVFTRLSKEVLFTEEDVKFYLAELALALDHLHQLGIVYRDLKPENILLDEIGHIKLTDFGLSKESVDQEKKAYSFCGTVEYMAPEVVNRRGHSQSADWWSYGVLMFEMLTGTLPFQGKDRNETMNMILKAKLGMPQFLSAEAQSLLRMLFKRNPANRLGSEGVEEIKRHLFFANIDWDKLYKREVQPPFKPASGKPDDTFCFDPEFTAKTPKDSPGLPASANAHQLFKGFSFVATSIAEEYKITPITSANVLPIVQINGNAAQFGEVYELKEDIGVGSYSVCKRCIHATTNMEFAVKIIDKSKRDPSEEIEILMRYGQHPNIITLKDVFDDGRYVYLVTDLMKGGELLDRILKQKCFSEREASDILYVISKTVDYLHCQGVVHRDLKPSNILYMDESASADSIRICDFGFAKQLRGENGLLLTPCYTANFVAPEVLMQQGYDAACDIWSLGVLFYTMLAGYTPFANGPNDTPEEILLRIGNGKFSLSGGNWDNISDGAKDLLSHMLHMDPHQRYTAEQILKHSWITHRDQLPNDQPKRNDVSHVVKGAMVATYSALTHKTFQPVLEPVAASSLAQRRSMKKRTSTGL
UniProt Q9H0K1: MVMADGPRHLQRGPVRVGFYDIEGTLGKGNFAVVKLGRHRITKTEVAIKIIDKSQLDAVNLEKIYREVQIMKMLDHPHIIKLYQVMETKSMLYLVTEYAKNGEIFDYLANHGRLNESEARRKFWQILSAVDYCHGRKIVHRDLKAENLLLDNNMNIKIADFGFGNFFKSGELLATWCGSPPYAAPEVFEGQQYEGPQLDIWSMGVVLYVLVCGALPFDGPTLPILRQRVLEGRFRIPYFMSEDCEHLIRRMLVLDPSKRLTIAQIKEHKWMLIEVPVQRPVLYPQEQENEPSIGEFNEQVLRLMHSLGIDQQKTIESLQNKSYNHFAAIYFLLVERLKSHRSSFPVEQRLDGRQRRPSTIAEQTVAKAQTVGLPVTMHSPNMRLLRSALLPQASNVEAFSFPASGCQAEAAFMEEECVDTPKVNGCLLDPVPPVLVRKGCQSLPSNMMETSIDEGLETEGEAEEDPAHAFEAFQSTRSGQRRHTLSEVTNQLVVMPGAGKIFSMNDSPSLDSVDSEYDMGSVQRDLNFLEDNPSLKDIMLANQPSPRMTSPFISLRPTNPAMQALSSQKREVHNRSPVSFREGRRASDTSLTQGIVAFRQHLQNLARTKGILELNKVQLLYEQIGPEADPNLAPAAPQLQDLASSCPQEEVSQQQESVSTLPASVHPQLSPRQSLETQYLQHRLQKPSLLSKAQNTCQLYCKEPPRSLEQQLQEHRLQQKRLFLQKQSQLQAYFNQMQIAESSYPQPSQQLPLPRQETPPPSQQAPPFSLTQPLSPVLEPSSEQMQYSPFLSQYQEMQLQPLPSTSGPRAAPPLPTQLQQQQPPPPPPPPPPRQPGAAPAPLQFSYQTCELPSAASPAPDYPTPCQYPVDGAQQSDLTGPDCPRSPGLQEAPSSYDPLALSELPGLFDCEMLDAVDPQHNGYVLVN
UniProt P30291: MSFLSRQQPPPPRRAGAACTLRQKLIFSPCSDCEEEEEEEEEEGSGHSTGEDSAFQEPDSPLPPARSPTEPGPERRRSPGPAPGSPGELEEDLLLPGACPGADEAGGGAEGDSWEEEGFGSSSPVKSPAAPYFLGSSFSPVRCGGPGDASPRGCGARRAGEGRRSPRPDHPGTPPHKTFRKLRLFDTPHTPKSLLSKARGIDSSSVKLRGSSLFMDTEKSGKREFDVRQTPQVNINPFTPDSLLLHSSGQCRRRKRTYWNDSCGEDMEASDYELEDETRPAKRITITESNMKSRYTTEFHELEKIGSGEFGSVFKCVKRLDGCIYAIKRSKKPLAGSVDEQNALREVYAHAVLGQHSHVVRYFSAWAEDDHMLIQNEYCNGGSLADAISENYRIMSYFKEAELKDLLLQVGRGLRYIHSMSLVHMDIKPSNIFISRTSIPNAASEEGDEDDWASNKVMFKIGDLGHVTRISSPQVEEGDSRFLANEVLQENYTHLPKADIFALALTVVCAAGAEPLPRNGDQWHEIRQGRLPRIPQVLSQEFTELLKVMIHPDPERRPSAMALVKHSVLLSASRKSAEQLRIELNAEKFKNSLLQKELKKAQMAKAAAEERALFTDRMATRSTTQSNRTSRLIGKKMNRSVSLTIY

Key:
Experiment in all cases: radiometric filter-binding kinase assay, Kinase HotSpot
Details in all cases: compound 0.5 µM; ATP 10 µM
ACVR1 (human) = ACVR1 (human) (UniProt Q04771)
AKT2 (human) = AKT2 (human) (UniProt P31751)
BRSK1 (human) = BRSK1 (human) (UniProt Q8TDC3)
CAMKK2 (human) = CAMKK2 (human) (UniProt Q96RR4)
CSNK1D (human) = CSNK1D (human) (UniProt P48730)
CSNK1G1 (human) = CSNK1G1 (human) (UniProt Q9HCP0)
DCLK2 (human) = DCLK2 (human) (UniProt Q8N568)
DSTYK (human) = DSTYK (human) (UniProt Q6XUX3)
DYRK3 (human) = DYRK3 (human) (UniProt O43781)
EPHA7 (human) = EPHA7 (human) (UniProt Q15375)
EPHA8 (human) = EPHA8 (human) (UniProt P29322)
EPHB1 (human) = EPHB1 (human) (UniProt P54762)
EPHB2 (human) = EPHB2 (human) (UniProt P29323)
EPHB4 (human) = EPHB4 (human) (UniProt P54760)
FGFR4 (human) = FGFR4 (human) (UniProt P22455)
FGR (human) = FGR (human) (UniProt P09769)
FLT1 (human) = FLT1 (human) (UniProt P17948)
FLT3 (human) = FLT3 (human) (UniProt P36888)
FRK (human) = FRK (human) (UniProt P42685)
FYN (human) = FYN (human) (UniProt P06241)
ITK (human) = ITK (human) (UniProt Q08881)
[1] = molecular target: JAK1 JH1 catalytic (human) (UniProt P23458)
MAP3K9 (human) = MAP3K9 (human) (UniProt P80192)
MAP4K4 (human) = MAP4K4 (human) (UniProt O95819)
MAPK9 (human) = MAPK9 (human) (UniProt P45984)
MARK4 (human) = MARK4 (human) (UniProt Q96L34)
MYLK2 (human) = MYLK2 (human) (UniProt Q9H1R3)
NEK11 (human) = NEK11 (human) (UniProt Q8NG66)
PAK3 (human) = PAK3 (human) (UniProt O75914)
PBK (human) = PBK (human) (UniProt Q96KB5)
PHKG2 (human) = PHKG2 (human) (UniProt P15735)
PLK1 (human) = PLK1 (human) (UniProt P53350)
PRKCA (human) = PRKCA (human) (UniProt P17252)
PRKG1 (human) = PRKG1 (human) (UniProt Q13976)
RIPK2 (human) = RIPK2 (human) (UniProt O43353)
ROCK2 (human) = ROCK2 (human) (UniProt O75116)
RPS6KA2 KD1 KD2 (human) = RPS6KA2 KD1 KD2 (human) (UniProt Q15349)
RPS6KA6 KD1 KD2 (human) = RPS6KA6 KD1 KD2 (human) (UniProt Q9UK32)
SIK2 (human) = SIK2 (human) (UniProt Q9H0K1)
TAOK3 (human) = TAOK3 (human) (UniProt Q9H2K8)
ULK3 (human) = ULK3 (human) (UniProt Q6PHR2)
WEE1 (human) = WEE1 (human) (UniProt P30291)

SMILES: O=C1Nc2ccc3ncsc3c2/C1=C/c1c[nH]cn1
- residual activity (ACVR1 (human)): 144%
- residual activity (AKT2 (human)): 89.7%
- residual activity (BRSK1 (human)): 10%
- residual activity (CAMKK2 (human)): 54.4%
- residual activity (CSNK1D (human)): 42.8%
- residual activity (CSNK1G1 (human)): 86.9%
- residual activity (DCLK2 (human)): 69.8%
- residual activity (DSTYK (human)): 97%
- residual activity (DYRK3 (human)): 39.2%
- residual activity (EPHA7 (human)): 71.3%
- residual activity (EPHA8 (human)): 93.4%
- residual activity (EPHB1 (human)): 62.2%
- residual activity (EPHB2 (human)): 94.2%
- residual activity (EPHB4 (human)): 90.6%
- residual activity (FGFR4 (human)): 90.7%
- residual activity (FGR (human)): 62.8%
- residual activity (FLT1 (human)): 40.1%
- residual activity (FLT3 (human)): 2.82%
- residual activity (FRK (human)): 85%
- residual activity (FYN (human)): 75.1%
- residual activity (ITK (human)): 80.9%
- residual activity [1]: 53.9%
- residual activity (MAP3K9 (human)): 46.1%
- residual activity (MAP4K4 (human)): 5.36%
- residual activity (MAPK9 (human)): 45.8%
- residual activity (MARK4 (human)): 12.8%
- residual activity (MYLK2 (human)): 12%
- residual activity (NEK11 (human)): 112%
- residual activity (PAK3 (human)): 85.4%
- residual activity (PBK (human)): 67.4%
- residual activity (PHKG2 (human)): 68.1%
- residual activity (PLK1 (human)): 89%
- residual activity (PRKCA (human)): 91.4%
- residual activity (PRKG1 (human)): 17.5% and 20.3%
- residual activity (RIPK2 (human)): 85%
- residual activity (ROCK2 (human)): 11.7%
- residual activity (RPS6KA2 KD1 KD2 (human)): 7.84%
- residual activity (RPS6KA6 KD1 KD2 (human)): 8.68%
- residual activity (SIK2 (human)): 74%
- residual activity (TAOK3 (human)): 18.6%
- residual activity (ULK3 (human)): 57.9%
- residual activity (WEE1 (human)): 75.4%

Several values for one entry are separate records, joined by “and”; a condition that tells them apart may be missing. Equal values may be shown once.
